According to PubChem BioAssay AID504408 (Broad Institute, 2011):
This is a selection; strong and weak results do not stand in their true shares. Some tests of the compounds listed are not included; inactive here does not mean inactive elsewhere. Active and inactive are the calls of the source.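 Rule for the calls: active = mean replicate activation of at least 50% with a set share of replicates each reaching 50%; inconclusive = only one of those two conditions met; inactive = mean below 50% and too few replicates reaching it.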

assay: HSF-1 response element luciferase induction – NIH3T3-HGL cells, MG132 stress, luminescence, single point, primary screen (AID 504408); details: NIH3T3-HGL HSF-1 luciferase reporter, MG132, 8 h; at 9 µM; stronger effect = higher value; 100% = twice DMSO control signal;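 note: 0% = median of the neutral control wells and 100% = twice that signal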

SMILES	activation
CN(C)C1CCCC1OC(=O)C(O)(c1ccccc1)c1ccccc1 (centres undefined)	inactive: 2.27%
CN(C)c1ccc(C(=O)NCC2(N(C)C)CCCCC2)cc1	inactive: -10.8%
Cc1ccccc1C(=O)NCC1(N2CCCCC2)CCCCC1	inactive: 11.7%
O=C(NCC1(N2CCCCC2)CCCCC1)c1cccc(Br)c1	inactive: 3.1%
Cc1cc(C(=O)NCC2(N3CCCCC3)CCCCC2)ccc1[N+](=O)[O-]	inactive: -24.7%
CCN1CCCC(OC(=O)C2(O)c3ccccc3C=Cc3ccccc32)C1 (centres undefined)	inactive: -40%
COc1ccc(C(=O)NCC2(N(C)C)CCCCC2)cc1	inactive: -7.47%
O=C(NCC1(N2CCCCC2)CCCCC1)c1cc(F)c(F)cc1Cl	inactive: 8.95%
C=CCN1CCN(CCOC(=O)C(O)(c2ccccc2)c2ccccc2)CC1	inactive: 29.4%
CN1[C@@H]2CC[C@H]1CC(OC(=O)C(O)(c1ccccc1)c1ccccc1)C2 (some centres undefined)	inactive: -12.1%
O=C(NCC1(N2CCCCC2)CCCCC1)c1cc([N+](=O)[O-])ccc1Cl	inactive: 23.4%
Cc1ccc(C(=O)NCC2(N3CCCCC3)CCCCC2)cc1	inactive: -3.93%
CC(C)N1C(=O)CC2(CCN(CCOC(=O)C(O)(c3ccccc3)c3ccccc3)CC2)C1=O	inactive: 5.07%
COc1cc(SC)ccc1C(=O)NCC1(N(C)C)CCCCC1	inactive: -16.5%
CCN(CC)CC(C)C(C)OC(=O)C(O)(c1ccccc1)c1ccccc1 (centres undefined)	inactive: -7.92%
O=C(OC1CN2CCC1CC2)C(CO)(c1ccccc1)c1ccccc1 (centres undefined)	inactive: -4.21%
CN(C)c1cccc(C(=O)NCC2(N(C)C)CCCCC2)c1	inactive: -9.14%
CC(C)Oc1ccc(C(=O)NCC2(N(C)C)CCCCC2)cc1	inactive: -3.61%
COc1ccc(Br)c(C(=O)NCC2(N3CCCCC3)CCCCC2)c1	inactive: -11.6%
COc1cc(C(=O)NCC2(N(C)C)CCCCC2)c([N+](=O)[O-])cc1OC	active: 69.6%
CN(C)C1(CNC(=O)c2ccc(Br)cc2)CCCCC1	inactive: 8.43%
O=C(NCC1(N2CCCCC2)CCCCC1)c1cccc(Cl)c1	inactive: 2.66%
COc1ccc(Cl)cc1C(=O)NCC1(N(C)C)CCCCC1	inactive: -24.9%
COc1cccc(C(=O)NCC2(N3CCCCC3)CCCCC2)c1	inactive: -11.2%
